Here are results for 15 molecules from PubChem BioAssay (NCI).

Structures are written as SMILES. “And” between values parts separate entries of the source, which are not always exact repeats. Equal values may be shown once. The entries are a selection whose mix differs from that of the whole data set.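 Results are percent growth after 48 hours of single-concentration exposure. 100 means growth as in untreated cells, lower positive values show inhibition; negative values down to -100 show cell death.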 The source made the active and inactive calls. Rule for the calls: active = growth percent below 10; inactive = the rest.

Among the test systems are NCI/ADR-RES ovarian; T-47D breast; BT-549 breast; MDA-MB-435 melanoma; SW-620 colon; MCF7 breast; HCT-116 colon; HCC-2998 colon; KM12 colon.
Common to all, as to assay: NCI-60 one-dose screen, 48 h (100 = growth as untreated, 0 = no growth, -100 = all killed)
Settings in all cases: 10 µM

Regarding `Nc1cc([N+](=O)[O-])cc([N+](=O)[O-])c1O`, the growth with NCI/ADR-RES ovarian was inactive: 110% and inactive: 101%; in the assay with T-47D breast it was inactive: 96.5% and inactive: 97.4%; in the assay on BT-549 breast, inactive: 100%; in the assay with MDA-MB-435 melanoma, inactive: 107% and inactive: 105%; in the assay with SW-620 colon, inactive: 132% and inactive: 107%; in the assay on MCF7 breast, inactive: 96.6% and inactive: 94%. Besides, the growth is inactive: 97.9% and inactive: 95.8% with HCT-116 colon; inactive: 103% and inactive: 101% with HCC-2998 colon; inactive: 98.4% and inactive: 108% in the assay on KM12 colon.

On to `O=[N+]([O-])c1cc([N+](=O)[O-])c(O)c([N+](=O)[O-])c1.c1ccc(Cc2ccncc2)cc1`, for which the growth in the assay on NCI/ADR-RES ovarian was inactive: 115%; in the assay on T-47D breast, inactive: 91%; in the assay on BT-549 breast, inactive: 106%; in the assay on MDA-MB-435 melanoma, inactive: 103%; in the assay on SW-620 colon, inactive: 105%; in the assay on MCF7 breast, inactive: 93%. For the same molecule, the growth is inactive: 105% in the assay on HCT-116 colon, inactive: 95.8% in the assay on HCC-2998 colon and inactive: 100% with KM12 colon.

Regarding `O=C(O)C1(O)c2ccccc2-c2ccccc21`, the growth in the assay on NCI/ADR-RES ovarian is inactive: 99% and inactive: 99.6%; with T-47D breast, inactive: 86.4% and inactive: 105%; with BT-549 breast, inactive: 118% and inactive: 115%; in the assay on MDA-MB-435 melanoma, inactive: 103%; in the assay on SW-620 colon, inactive: 106% and inactive: 92.1%; in the assay with MCF7 breast, inactive: 102%. The growth was inactive: 91.4% and inactive: 92.9% in the assay on HCT-116 colon; inactive: 102% and inactive: 104% with HCC-2998 colon; inactive: 97.6% and inactive: 102% with KM12 colon.

In the case of `CCN(C)CC.O=[N+]([O-])c1cc([N+](=O)[O-])c(O)c([N+](=O)[O-])c1`, the growth in the assay on NCI/ADR-RES ovarian was inactive: 101%; in the assay on T-47D breast, inactive: 96.6%; in the assay with BT-549 breast it was inactive: 90.9%; in the assay with MDA-MB-435 melanoma it was inactive: 100%; with SW-620 colon it was inactive: 98.4%; in the assay on MCF7 breast, inactive: 92.3%. Also, the growth is inactive: 87.9% in the assay on HCT-116 colon, inactive: 103% with HCC-2998 colon and inactive: 101% with KM12 colon.

For the molecule `CN(CCO)CCCl.O=[N+]([O-])c1cc([N+](=O)[O-])c(O)c([N+](=O)[O-])c1`, the growth is inactive: 106% in the assay on NCI/ADR-RES ovarian; inactive: 95.6% in the assay with T-47D breast; inactive: 97.4% in the assay with BT-549 breast; inactive: 100% in the assay on MDA-MB-435 melanoma; inactive: 88.1% in the assay with SW-620 colon; inactive: 90.8% in the assay on MCF7 breast. In addition, the growth in the assay on HCT-116 colon is inactive: 97.9%; with HCC-2998 colon, inactive: 98.9%; in the assay with KM12 colon, inactive: 103%.

As to `CCCOP(=S)(Cl)OCCC`, the growth with NCI/ADR-RES ovarian was inactive: 105%; in the assay on T-47D breast, inactive: 104%; with BT-549 breast, inactive: 112%; in the assay on MDA-MB-435 melanoma, inactive: 99%; with SW-620 colon, inactive: 96.7%; in the assay with MCF7 breast, inactive: 97.9%. The growth was inactive: 108% in the assay on HCT-116 colon, inactive: 104% in the assay on HCC-2998 colon and inactive: 107% with KM12 colon.

Regarding `CCOP(=O)(CC)OCC`, the growth in the assay on NCI/ADR-RES ovarian is inactive: 105%; in the assay with T-47D breast, inactive: 112%; in the assay on BT-549 breast, inactive: 105%; in the assay with MDA-MB-435 melanoma, inactive: 101%; in the assay on SW-620 colon, inactive: 96.5%; in the assay on MCF7 breast, inactive: 89.8%. For the same molecule, the values for the growth in the assay on HCT-116 colon, with HCC-2998 colon and in the assay on KM12 colon were inactive: 95.3%, inactive: 108% and inactive: 116%, respectively.

Turning to `COC(=O)C(O)(c1ccccc1)c1ccccc1`, the growth in the assay on NCI/ADR-RES ovarian is inactive: 106%; in the assay with T-47D breast it was inactive: 92.1%; in the assay on BT-549 breast, inactive: 95.6%; in the assay with MDA-MB-435 melanoma it was inactive: 102%; in the assay with SW-620 colon, inactive: 124%; in the assay on MCF7 breast, inactive: 94.8%. The growth in the assay with HCT-116 colon is inactive: 91.2%; with HCC-2998 colon it was inactive: 107%; in the assay with KM12 colon it was inactive: 109%.

Take `O=C(OCCN1CCCCCCCC1)C(O)(c1ccccc1)c1ccccc1`: the growth is inactive: 106% in the assay on NCI/ADR-RES ovarian; inactive: 94.6% with T-47D breast; inactive: 104% with BT-549 breast; inactive: 114% with MDA-MB-435 melanoma; inactive: 109% with SW-620 colon; inactive: 103% in the assay on MCF7 breast. Also, the growth in the assay with HCT-116 colon was inactive: 100%; with HCC-2998 colon, inactive: 109%; in the assay with KM12 colon it was inactive: 105%.

In the case of `CC(C)N(CCCl)C(C)C`, the growth with NCI/ADR-RES ovarian is inactive: 101%; in the assay on T-47D breast, inactive: 109%; with BT-549 breast it was inactive: 102%; with MDA-MB-435 melanoma, inactive: 117%; in the assay with SW-620 colon, inactive: 108%; in the assay on MCF7 breast, inactive: 103%. The growth in the assay with HCT-116 colon was inactive: 108%; with HCC-2998 colon, inactive: 104%; with KM12 colon, inactive: 114%.

Take `COc1ccccc1-c1ccccn1.O=[N+]([O-])c1cc([N+](=O)[O-])c(O)c([N+](=O)[O-])c1`: the growth with NCI/ADR-RES ovarian is inactive: 111%; in the assay with T-47D breast it was inactive: 102%; in the assay with BT-549 breast it was inactive: 97.8%; in the assay with MDA-MB-435 melanoma, inactive: 112%; in the assay with SW-620 colon, inactive: 104%; in the assay with MCF7 breast it was inactive: 107%. Besides, the growth is inactive: 97.3% in the assay with HCT-116 colon, inactive: 109% in the assay with HCC-2998 colon and inactive: 105% with KM12 colon.

With `CCCCCCCOP(=O)(CC)OCCCCCCC`, the growth was inactive: 105% with NCI/ADR-RES ovarian; inactive: 85.9% with T-47D breast; inactive: 106% in the assay on BT-549 breast; inactive: 99.5% in the assay with MDA-MB-435 melanoma; inactive: 106% in the assay on SW-620 colon; inactive: 92.3% in the assay with MCF7 breast. In addition, the figures for the growth in the assay on HCT-116 colon, in the assay on HCC-2998 colon and in the assay with KM12 colon were inactive: 101%, inactive: 103% and inactive: 103%, respectively.

Turning to `O=[N+]([O-])c1cc([N+](=O)[O-])c(O)c([N+](=O)[O-])c1.c1ccnnc1`, the growth in the assay with NCI/ADR-RES ovarian was inactive: 110%; in the assay with T-47D breast, inactive: 93.9%; in the assay with BT-549 breast it was inactive: 101%; in the assay with MDA-MB-435 melanoma, inactive: 113%; with SW-620 colon it was inactive: 93.9%; with MCF7 breast it was inactive: 93.9%. The figures for the growth with HCT-116 colon, in the assay with HCC-2998 colon and in the assay on KM12 colon were inactive: 102%, inactive: 103% and inactive: 110%, respectively.

Take `CCN(CC)CCS`: the growth was inactive: 106% with NCI/ADR-RES ovarian; inactive: 104% with T-47D breast; inactive: 99.5% in the assay with BT-549 breast; inactive: 104% with MDA-MB-435 melanoma; inactive: 103% with SW-620 colon; inactive: 105% in the assay on MCF7 breast. Besides, the growth in the assay on HCT-116 colon is inactive: 103%; in the assay with HCC-2998 colon, inactive: 109%; in the assay with KM12 colon, inactive: 97.2%.

On to `Cc1c([N+](=O)[O-])cc([N+](=O)[O-])c(Br)c1[N+](=O)[O-]`, for which the growth was inactive: 79.9% in the assay with NCI/ADR-RES ovarian; active: -36.4% in the assay with T-47D breast; inactive: 95.3% with BT-549 breast; inactive: 63.1% in the assay with MDA-MB-435 melanoma; active: -77% with SW-620 colon; inactive: 45.8% with MCF7 breast. The results for the growth with HCT-116 colon, in the assay with HCC-2998 colon and with KM12 colon were active: -100%, inactive: 97.4% and inactive: 94%, respectively.
